What was measured:
Format in all cases: in vivo
[1] = test system: WT and TIMP-3−/− mice post-MI; experiment: Survival after myocardial infarction (MI) with cetuximab treatment
Procedure: Wild-type (WT) mice of the genetic background C57BL/6 were purchased from Charles River Laboratories (Wilmington, Mass.). TIMP3^−/− mice were generated as described previously and back-crossed more than 7 generations into the C57BL/6 background. Animals were provided with food and water ad libitum and maintained in a temperature and humidity controlled facility with 12-hour light and dark cycles. A breeding program was carried out to generate adults for this study. Animal studies were approved by the University of Western Ontario Institutional Animal Care and Use Committee, and the investigation conformed with the Guide for the Care and Use of Laboratory Animals, published by National Institutes of Health (NIH Publication No. 85-23, revised 1996).
(§1) MI was induced by occlusion of the left anterior descending coronary artery as we have previously described. Experiments were conducted at 5 or 30 days post surgery to mimic early and later stages of heart failure, respectively. Survival was monitored, and incidence of cardiac rupture and the left ventricle to body weight ratio were recorded. Mice with infarct sizes between 30-45% were used in all studies.
Following MI, WT and TIMP-3^−/− mice were treated with cetuximab (Erbitux®, 10 mg/kg) immediately by an IV injection, which was followed by IP injections at day 3 and 5 post-MI, respectively. Survival was monitored for 30 days after MI. […]

[2] = test system: WT and TIMP-3−/− mice post-MI; experiment: Assessment of cardiac rupture post-MI with cetuximab treatment
Procedure: as §1
Deceased mice were examined within 12 hours. The chest was opened to examine bleeding around the infarct region. Hearts were then removed and the left ventricle (LV) chamber was cannulated with a 20 G blunt end IV catheter via the aorta and perfused with 200 μL saline to determine if there was leakage from the infarct region. Histological examination was conducted to confirm the region of cardiac rupture. Briefly, WT and TIMP-3^−/− hearts were isolated after death post-MI and fixed in 4% paraformaldehyde and embedded in paraffin. Samples were then sectioned (5 μm), stained with hematoxylin/eosin and visualized using a Zeiss microscope (Observer D1) as in our previous study.
Following MI, WT and TIMP-3^−/− mice were treated with cetuximab (Erbitux®, 10 mg/kg) immediately by an IV injection, which was followed by IP injections at day 3 and 5 post-MI, respectively. Survival was monitored for 30 days after MI. Hemodynamic measurements were made at 5 and 30 days post-MI. […]

[3] = test system: WT and TIMP-3−/− mice post-MI; experiment: Hemodynamic measurements (Millar pressure transducer catheter) post-MI with cetuximab treatment; details: for Heart Rate / LV +dP/dt / LV −dP/dt / LVEDP / LVSP / MAP: MI + Cetux, mean ± SEM
Procedure: as §1
Cardiac function was measured at 5 and 30 days post-MI using a Millar pressure transducer catheter (Model SPR-839, Size 1.4F) as previously described. Measurements included arterial pressures, heart rate, LV systolic and end-diastolic pressures, as well as the maximal rate of LV pressure development (+dP/dt) and maximal rate of pressure relaxation (−dP/dt). Animals were sacrificed after hemodynamic measurements and cardiac hypertrophy was assessed by determination of the heart weight (mg) to the body weight (g) ratio.
Following MI, WT and TIMP-3^−/− mice were treated with cetuximab (Erbitux®, 10 mg/kg) immediately by an IV injection, which was followed by IP injections at day 3 and 5 post-MI, respectively. Survival was monitored for 30 days after MI. Hemodynamic measurements were made at 5 and 30 days post-MI. Post-mortem examinations were performed in all mice that died after MI to identify cardiac ruptures.

[4] = WT mice, cetuximab 10 mg/kg, P=n.s.
[5] = TIMP-3−/− mice, 30 days post-MI
[6] = TIMP-3−/− mice, 30 days post-MI, P<0.05 vs MI

Question: For cetuximab, which “30-day survival post-MI” value ([1]; TIMP-3−/− mice, cetuximab 10 mg/kg IV immediately, IP at day 3 and 5 post-MI, untreated 22.7%, P<0.01) is on record?
Answer: 62.5%

Question: And the effect on survival [1, 4]?
Answer: did not have any significant effect

Question: What about the “incidence of cardiac rupture” value ([2]; TIMP-3−/− mice, cetuximab 10 mg/kg immediately and at day 3 and 5 post-MI, untreated 34%, P<0.05) of the same substance?
Answer: 12%

Question: And the “effect on cardiac rupture” value [2, 4]?
Answer: did not have any significant effect

Question: What about the “Heart Rate” value ([3]; TIMP-3−/− mice, 5 days post-MI) of the same substance?
Answer: 412 ± 14 bpm

Question: What about the “LV +dP/dt” value ([3]; TIMP-3−/− mice, 5 days post-MI) of the same substance?
Answer: 4981 ± 885 mmHg s^−1

Question: And the “LV −dP/dt” value ([3]; TIMP-3−/− mice, 5 days post-MI)?
Answer: 4206 ± 568 mmHg s^−1

Question: What about the LVEDP ([3]; TIMP-3−/− mice, 5 days post-MI) of the same substance?
Answer: 7.1 ± 0.9 mmHg

Question: What about the LVSP ([3]; TIMP-3−/− mice, 5 days post-MI) of the same substance?
Answer: 72.5 ± 3.9 mmHg

Question: And the MAP ([3]; TIMP-3−/− mice, 5 days post-MI)?
Answer: 67.0 ± 4.5 mmHg

Question: What about the “Heart Rate” value [3, 5] of the same substance?
Answer: 371 ± 17 bpm

Question: And the “LV +dP/dt” value [3, 5]?
Answer: 7312 ± 463 mmHg s^−1

Question: And the “LV −dP/dt” value [3, 5]?
Answer: 6996 ± 931 mmHg s^−1

Question: And the LVEDP [3, 5]?
Answer: 9.0 ± 2.8 mmHg

Question: And the LVSP [3, 5]?
Answer: 117.7 ± 11.8 mmHg

Question: What about the MAP [3, 5] of the same substance?
Answer: 79.9 ± 4.2 mmHg

Question: What about the “LV+dP/dt change after cetuximab treatment” value [3, 6] of the same substance?
Answer: significantly increased

Question: And the “LVSP change after cetuximab treatment” value [3, 6]?
Answer: significantly increased

Question: And the cardiac function ([3]; TIMP-3−/− mice, day 5 post-MI, cetuximab vs MI alone)?
Answer: not significantly different

Question: And the “Heart Rate” value ([3]; WT mice, 5 days post-MI)?
Answer: 429 ± 35 bpm

Question: What about the “LV +dP/dt” value ([3]; WT mice, 5 days post-MI) of the same substance?
Answer: 4428 ± 676 mmHg s^−1

Question: And the “LV −dP/dt” value ([3]; WT mice, 5 days post-MI)?
Answer: 3974 ± 455 mmHg s^−1

Question: And the LVEDP ([3]; WT mice, 5 days post-MI)?
Answer: 9.8 ± 2.5 mmHg

Question: What about the LVSP ([3]; WT mice, 5 days post-MI) of the same substance?
Answer: 76.5 ± 4.9 mmHg

Question: What about the MAP ([3]; WT mice, 5 days post-MI) of the same substance?
Answer: 62.1 ± 4.5 mmHg

Question: And the “Heart Rate” value ([3]; WT mice, 30 days post-MI)?
Answer: 381 ± 17 bpm

Question: And the “LV +dP/dt” value ([3]; WT mice, 30 days post-MI)?
Answer: 5523 ± 376 mmHg s^−1

Question: And the “LV −dP/dt” value ([3]; WT mice, 30 days post-MI)?
Answer: 5767 ± 391 mmHg s^−1

Question: And the LVEDP ([3]; WT mice, 30 days post-MI)?
Answer: 11.5 ± 2.6 mmHg

Question: What about the LVSP ([3]; WT mice, 30 days post-MI) of the same substance?
Answer: 94.3 ± 7.0 mmHg

Question: What about the MAP ([3]; WT mice, 30 days post-MI) of the same substance?
Answer: 74.9 ± 3.7 mmHg

Question: And the “effect on cardiac function” value [3, 4]?
Answer: did not have any significant effect
